AlphaSeq binding of Ab-14 heavy chain variants to a spike HR2 peptide

Reference: Li et al. 2023, doi:10.1038/s41467-023-39022-2. File: FLAb, binding data.

Target: peptide PDVDLGDISGINAS, taken from heptad repeat 2 (HR2) of SARS-CoV-2 spike.

The variants keep the light chain, the linker and the frameworks of Ab-14 (scFv order VH, three GGGGS repeats, VL).
VH: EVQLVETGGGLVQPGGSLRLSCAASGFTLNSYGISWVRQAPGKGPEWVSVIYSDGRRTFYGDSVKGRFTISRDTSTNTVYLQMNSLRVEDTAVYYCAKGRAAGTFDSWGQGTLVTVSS
VL: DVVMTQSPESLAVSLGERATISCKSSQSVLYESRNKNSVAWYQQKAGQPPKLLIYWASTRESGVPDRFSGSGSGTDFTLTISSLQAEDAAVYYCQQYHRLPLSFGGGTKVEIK

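The starting antibody came from a phage panning campaign against this peptide. Designed CDR sequences, proposed from the first random library and measured here. Their group label is 14H_GPLM_Gen (GPLM: also part of the Gaussian process libraries; Gen: genetic algorithm; a sequence that several methods proposed may carry one label only). Affinity was read by AlphaSeq, a pooled yeast mating assay with surface-displayed partners. The frequency of each diploid, read from paired DNA barcodes, reflects how well the two displayed proteins bind. Scores were corrected for input abundance and mapped to Kd with protein pairs of known affinity run in the same pool. The assay was run in six technical replicates.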

Variants are written as CDR1, CDR2 and CDR3 of the heavy chain (limits as in the source). Parent: GFTLNSYGIS, VIYSDGRRTFYGDSVK, GRAAGTFDS. Scale: log10 of Kd in nM, estimated from mating counts; low values are strong binders. An entry "ND" has no value in the source: the pair was not observed among the diploids in that replicate. This suggests poor binding but is not conclusive. As a blank, each scFv also met three strains without target: over all heavy chain designs, 1% of these pairings were detected, typically at 2.08 and seldom below 0.84. The control count says in how many pairings with the empty strains this scFv gave a signal, with their mean in brackets. The parent sequence was in this pool as ten entries: three were never detected, three once, and four in most replicates, with averages from 0.34 to 2.37. Values of this round are not directly comparable with the first-round values of the same sequences. The authors averaged sequences with at least three values out of six and counted those with two or fewer as poor binders.

CDR-H1,CDR-H2,CDR-H3,"replicates, log10 nM",signal with controls
GFELNSYGIS,VIYSDGRRTFYADSVK,GTAAGTFDS,1.14 1.26 0.43 0.85 0.64 0.97,0/18
GFDLNSYGIS,VIYSDGRRTFYADDVK,GRAAGTFDS,0.56 0.55 0.03 0.33 0.35 0.60,1/18 (2.33)
GFSLNSYGIS,VIYSDGQRTFYGDSVK,GRTAGTFDS,0.49 0.22 0.11 -0.09 0.28 0.76,2/18 (1.90)
GFGLNSYGIS,VIYADGRRTFYGDSVK,GKAAGTFDS,-0.09 0.09 0.12 -0.44 -0.52 -0.13,0/18
GFSLNEYGIS,VIYSDGRRTFYGDSVK,GQTAGTFDT,0.68 0.97 0.45 0.19 0.16 0.33,1/18 (1.79)
GFSLNSYGIS,VIYSDGRRTFYGDSVK,GQNAGTFDS,0.29 0.93 0.76 0.16 -0.23 0.92,0/18
GFSLNSYGIS,VIYSDGRRTFYGDSVK,GKIAGTFDS,0.62 0.43 0.45 0.38 0.64 0.90,0/18
GFSLNSYGIS,VIYSDGRRTFYSDMVK,GEAAGTFDS,2.38 0.96 1.37 0.60 1.34 2.30,0/18
MFSLNSYGIS,VIYSDGRRTFYADSVK,GRTAGTFDS,1.40 0.71 0.17 0.46 0.75 0.76,0/18
GFGLNEYGIS,VIYSDGRRTFYGDSVK,GQAAGTFDT,0.58 0.28 0.31 -0.03 0.10 0.32,1/18 (2.97)
GFSLNSYGIS,VIYSDGRRTFYADNVK,GRTAGTFDS,0.90 0.43 0.95 0.91 0.11 1.31,0/18
GFSLNDYGIS,VIYSDGRRTFYGDSVK,GRMAGTFDS,0.22 1.16 0.37 0.44 0.68 0.31,0/18
GFTLNSYGIS,VIYSDGRRTFYGDSVK,GREAGTFDN,1.29 1.02 ND 1.99 1.40 1.73,0/18
GFSLNSYGIS,VIYSDGRRTFYQDSVK,GEAAGTFDS,0.99 0.40 0.60 0.44 1.12 0.73,0/18
GFSLKSYGIS,VIYSDGRRTFYADSVK,GQAAGTFDS,1.01 0.44 0.37 0.66 1.09 0.16,0/18
GFSLNDYGIS,VIYSDGRRTFYGDSVK,GQTAGTFDS,-0.23 -0.37 -0.32 -0.83 -0.70 -0.16,1/18 (2.13)
GFQLNSYGIS,VIYSDGRRTFYIDSVK,GNAAGTFDS,1.05 1.98 0.38 0.06 0.24 0.54,0/18
GFTLNSYGIS,VIYSDGRRTFYGDSVK,GMEAGTFDT,ND ND ND ND ND ND,0/18
GFDLNKYGIS,VIYSDGRRTFYGDSVK,GRTAGTFDS,0.44 0.31 -0.24 0.17 -0.28 -0.07,1/18 (1.25)
GFSLNSYGIS,VIYSDGRRTFYADSVK,GKVAGTFDS,0.40 0.37 0.18 0.44 0.43 0.26,0/18
GFSLNSYGIS,VIYSDGRRTFYTDSVK,GRQAGTFDS,0.06 0.18 -0.12 0.52 0.33 0.70,0/18
GFSLNWYGIS,VIYSDGRRTFYGDSVK,GRTAGTFDS,1.77 1.44 2.88 1.37 1.91 1.53,0/18
GFSLNSYGIS,VIYSDGRRTFYADSVK,GQEAGTFDS,0.16 0.00 0.10 -0.13 -0.09 0.00,0/18
GFTLDSYGIS,VIYSDGRRTFYADSVK,GRAAGTFDQ,0.37 0.47 0.58 0.32 0.60 0.89,0/18
GFTLNSYGIS,VIYSDGRRTFYSDAVK,GEAAGTFDT,1.30 ND ND ND ND ND,0/18
GFSLNSYGIS,VIYSDGRRTFYADSVK,GEAAGTFDA,1.19 0.80 0.83 -0.07 0.46 0.50,0/18
GFSLNSYGIS,VIYSDGRRTFYGDSVK,GKTAGTFDA,0.55 -0.25 0.64 0.42 -0.25 0.77,0/18
GFSLKSYGIS,VIYADGRRTFYGDSVK,GQAAGTFDS,0.62 0.43 0.61 0.93 0.88 1.14,1/18 (1.42)
GFSLNSYGIS,VIYSDGRRTFYADSVK,GSAAGTFDK,0.50 0.61 0.26 0.84 0.50 0.31,0/18
GFSLNNYGIS,VIYSDGRRTFYGDSVK,GRTAGTFDA,0.30 0.30 0.06 0.39 0.20 0.62,0/18
GFTLNSYGIS,VIYSDGRRTFYIDSVK,GQTAGTFDT,0.03 0.38 -0.19 0.15 -0.07 -0.12,0/18
GFTLNSYGIS,VIYSDGMRTFYADSVK,GRVAGTFDS,-0.16 -0.39 -0.46 1.19 -0.09 0.21,0/18
GFTLNSYGIS,VIYSDGRRTFYADSVK,GRTAGTFDT,ND 1.38 1.44 1.63 1.70 2.66,0/18
GFTLDSYGIS,VIYSDGRRTFYGDSVK,GRTAGTFDV,-0.12 -0.41 0.25 0.17 0.41 0.99,0/18

Repeated from above, the 3 best binders with a signal in all replicates:

{"CDR-H1": "GFSLNDYGIS", "CDR-H2": "VIYSDGRRTFYGDSVK", "CDR-H3": "GQTAGTFDS", "replicates, log10 nM": "-0.23 -0.37 -0.32 -0.83 -0.70 -0.16", "signal with controls": "1/18 (2.13)"}
{"CDR-H1": "GFGLNSYGIS", "CDR-H2": "VIYADGRRTFYGDSVK", "CDR-H3": "GKAAGTFDS", "replicates, log10 nM": "-0.09 0.09 0.12 -0.44 -0.52 -0.13", "signal with controls": "0/18"}
{"CDR-H1": "GFSLNSYGIS", "CDR-H2": "VIYSDGRRTFYADSVK", "CDR-H3": "GQEAGTFDS", "replicates, log10 nM": "0.16 0.00 0.10 -0.13 -0.09 0.00", "signal with controls": "0/18"}